Our source for the IC50 values is PubChem BioAssay AID690 (Sanford-Burnham Center for Chemical Genomics, 2007).

By UniProt entry, the sequences of proteins in these tests, tags left out. Where a name states a change or a piece, a line headed by the entry shows the natural chain unless it says otherwise.
UniProt P05187: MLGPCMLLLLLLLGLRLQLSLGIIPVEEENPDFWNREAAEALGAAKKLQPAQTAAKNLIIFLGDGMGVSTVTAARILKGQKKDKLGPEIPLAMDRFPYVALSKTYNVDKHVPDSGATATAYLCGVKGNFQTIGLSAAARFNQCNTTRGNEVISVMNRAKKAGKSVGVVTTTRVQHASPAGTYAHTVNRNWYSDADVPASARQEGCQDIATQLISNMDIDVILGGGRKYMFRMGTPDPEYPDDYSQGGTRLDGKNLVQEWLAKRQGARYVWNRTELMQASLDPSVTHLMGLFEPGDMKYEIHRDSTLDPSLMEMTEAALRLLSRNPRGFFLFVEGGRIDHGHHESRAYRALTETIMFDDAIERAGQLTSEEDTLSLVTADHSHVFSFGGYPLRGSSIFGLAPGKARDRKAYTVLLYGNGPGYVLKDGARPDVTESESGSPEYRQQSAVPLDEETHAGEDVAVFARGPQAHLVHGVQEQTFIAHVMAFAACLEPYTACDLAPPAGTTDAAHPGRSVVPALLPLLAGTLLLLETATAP

For the test, the target named is Alkaline phosphatase, placental type (Homo sapiens) (UniProt P05187). Nature of the test: inhibition of human placental alkaline phosphatase – biochemical, luminescence, HTS (AID 690). As to conditions: purified PLAP, luminescent substrate.

As to `COc1ccc2c(c1OC)C(=O)OC2CC(=O)c1ccc(O)c(O)c1` (stereo unspecified), the IC50 is 1830 nM.

The IC50 is the point on the concentration scale where inhibition reaches its midpoint.
